The assay deals with human lung cancer cells (H1299). Particulars: 2-ME 1 μM, 24 h plus IR (gamma rays), various doses.

SMILES strings stand for the structures.

For `COc1cc2c(cc1O)CC[C@@H]1[C@@H]2CC[C@]2(C)[C@@H](O)CC[C@@H]12` [2-ME, 1,3,5(10)-estratrien-2,3,17b-triol 2 methylether], the “cell killing, combination with ionizing radiation” value was “greater than the expected additive effect”.

For the origin of these results see patent US20020106348A1, “Cancer therapeutics involving the administration of 2-methoxyestradiol and an agent that increases intracellular superoxide anion” (priority 2000, published 2002).
